Values of other authors as cited in paper PMC11855478, “Bicyclic N,S-Acetals Containing Fused Cysteine-Amide System as New Heterocyclic Class Targeting Human Farnesyltransferase (FTase-h)” (International Journal of Molecular Sciences, 2025).

Biological target: FTase
Conditions: known FTIs, Figure 1; cited from earlier work

For `NC(=O)N1CCC(CC(=O)N2CCC([C@H]3c4ncc(Br)cc4CCc4cc(Cl)cc(Br)c43)CC2)CC1` [Lonafarnib (SCH 66336), Lonafarnib], the IC50 is listed as 1.9 nM.
